The values that follow are results of earlier work, collected in patent US5377676A, “Method for determining the biodistribution of substances using fluorescence spectroscopy” (Cedars-Sinai Medical Center, priority 1993, dated 1995).

The conditions of the data set: in vivo; cited from earlier work.

Take hematoporphyrin derivative [HPD]: the “Skin accumulation / skin photosensitivity” value is “tendency to accumulate in the skin and cause a prolonged skin photosensitivity”.
